The numbers were not newly measured in patent publication US20230248744A1, “25-HYDROXYVITAMIN D2 AND/OR D3 FOR USE IN OBESITY” (CARBOGEN AMCIS B.V., priority 2020, published 2023), which cites them from elsewhere.

Like-named read-outs stand apart in the source and are kept apart here.

For series [1] the following is noted: cited from earlier work.
For series [2] the following is noted: oral single dose of 1250 μg; cited from earlier work.
Where [3] appears, read: men and women, 50,000 IU (1250 μg) once a week for 8 weeks.

For the substance vitamin D, in series [1] (setting [3]), the “serum 25(OH)D maintained” value is given as > 30 ng/mL and the toxicity result is reported as “without toxicity”. Further, the reports of toxicity result in series [1] (single or multiple oral doses of 1250 μg vitamin D, or a dose of 900 μg 25(OH)D3) was “toxicity has never been reported”. Further, the toxicity entry in series [1] (single oral dose of 1250 μg once a week for 8 weeks or every 2 weeks for up to 6 years) is “not associated with toxicity”. Further, the “toxicity in pharmacokinetic study” value in series [2] is “did not show any untoward toxicity”.
